Reference: patent US11149019B2, “Phenylpyridine derivative and pharmaceutical composition comprising the same” (Daewoong Pharmaceutical Co., Ltd., priority 2017, dated 2021)

Protein sequences, listed by entry. Tags and fused reporters are not part of them.
UniProt Q08881, whole entry: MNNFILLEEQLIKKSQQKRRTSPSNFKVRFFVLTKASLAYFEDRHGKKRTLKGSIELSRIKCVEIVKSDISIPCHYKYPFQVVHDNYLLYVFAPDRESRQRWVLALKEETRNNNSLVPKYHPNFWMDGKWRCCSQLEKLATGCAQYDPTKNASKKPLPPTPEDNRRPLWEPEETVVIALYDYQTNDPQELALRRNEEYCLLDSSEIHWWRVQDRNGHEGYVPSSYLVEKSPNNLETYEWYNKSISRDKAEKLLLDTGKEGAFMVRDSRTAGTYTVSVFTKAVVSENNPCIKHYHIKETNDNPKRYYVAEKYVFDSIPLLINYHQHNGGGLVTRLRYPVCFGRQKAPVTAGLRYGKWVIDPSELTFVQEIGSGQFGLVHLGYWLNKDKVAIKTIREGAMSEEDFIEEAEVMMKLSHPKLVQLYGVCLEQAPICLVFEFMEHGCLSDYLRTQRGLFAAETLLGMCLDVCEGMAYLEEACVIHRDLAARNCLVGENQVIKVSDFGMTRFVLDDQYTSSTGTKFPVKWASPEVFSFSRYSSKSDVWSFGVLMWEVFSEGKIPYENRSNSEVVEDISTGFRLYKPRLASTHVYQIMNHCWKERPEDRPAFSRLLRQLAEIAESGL
UniProt Q06187, whole entry: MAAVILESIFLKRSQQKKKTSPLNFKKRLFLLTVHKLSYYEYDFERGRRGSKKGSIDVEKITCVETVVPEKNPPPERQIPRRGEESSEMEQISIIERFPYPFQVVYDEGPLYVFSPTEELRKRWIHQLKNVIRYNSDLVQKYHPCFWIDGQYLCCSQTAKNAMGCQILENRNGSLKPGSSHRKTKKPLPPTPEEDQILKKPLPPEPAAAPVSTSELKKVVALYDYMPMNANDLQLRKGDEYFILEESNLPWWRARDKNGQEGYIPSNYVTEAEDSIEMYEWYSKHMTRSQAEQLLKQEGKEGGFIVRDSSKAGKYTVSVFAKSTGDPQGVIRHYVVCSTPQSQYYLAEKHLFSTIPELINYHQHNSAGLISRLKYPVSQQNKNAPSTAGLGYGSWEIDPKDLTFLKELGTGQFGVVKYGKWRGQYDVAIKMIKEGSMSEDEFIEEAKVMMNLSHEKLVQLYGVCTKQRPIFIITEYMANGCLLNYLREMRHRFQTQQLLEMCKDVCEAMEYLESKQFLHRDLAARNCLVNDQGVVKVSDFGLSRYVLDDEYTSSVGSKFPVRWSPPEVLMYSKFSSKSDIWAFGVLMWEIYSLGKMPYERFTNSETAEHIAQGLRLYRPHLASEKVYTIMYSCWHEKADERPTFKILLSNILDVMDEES

Key:
[1] = target: ITK (Homo sapiens, UniProt Q08881); assay: ADP-Glo + ITK Kinase enzyme system kit, inhibitory activity against ITK; details: read-out: Inhibitory activity ITK IC50; ITK enzyme 0.4 ng/ul, ATP final concentration of 25 ul, 30° C. for 1 hour, luminescence, duplicate
Description: (§1) Inhibitory activities against BTK and ITK were measured for the compounds prepared in the above Examples as follows.
The inhibitory activity against ITK was evaluated using ‘ADP-Glo™+ITK Kinase enzyme system’ kit (Promega Corporation). In a white 96-well plate, 10 ul of ITK enzyme prepared so as to have a final concentration of 0.4 ng/ul was mixed with 5 ul of compounds having a final concentration of 1 uM in the case of evaluating a single concentration of compound and a concentration of 1000, 300, 100, 30, 10, 3, 1, 0.3, 0.1 and 0.03 nM in the case of IC50 evaluation, and then reacted at room temperature for 15 minutes. To the plate on which reactions were completed, 5 ul of substrate and 5 ul of ATP prepared so as to have a final concentration of […] added and then allowed to react at 30° C. for 1 hour. All wells of the plate were treated with 25 ul of ADP-Glo™ reagent and then allowed to react at 30° C. for 40 minutes. After that, all wells were treated with 50 ul of kinase detection buffer, and then allowed to react at 30° C. for 30 minutes under light shielding conditions. For the plate on which all reactions were completed, luminescence was measured and the results were calculated. Evaluation was carried out in duplicate, and negative control and positive control were calculated depending on whether or not the enzyme was added without treatment of the compound. The IC50 was calculated based on the calculated values.

[2] = target: BTK (Homo sapiens, UniProt Q06187); assay: ADP-Glo + BTK Kinase enzyme system kit, inhibitory activity against BTK; details: read-out: Inhibitory activity BTK IC50; BTK enzyme 1 ng/ul, ATP 10 μM, 30° C. for 1 hour, luminescence, duplicate
Description: as §1
The inhibitory activities against BTK were evaluated using ‘ADP-Glo™+BTK Kinase enzyme system’ kit (Promega Corporation). In a white 96-well plate, 10 ul of BTK enzyme prepared so as to have a final concentration of 1 ng/ul was mixed with 5 μl of compounds having a final concentration of […] the case of evaluating a single concentration of compound and a concentration of 1000, 300, 100, 30, 10, 3, 1, 0.3, 0.1 and 0.03 nM in the case of IC50 evaluation, and then reacted at room temperature for 15 minutes. 5 ul of substrate and 5 ul of ATP prepared so as to have a final concentration of 10 μM were added to the plate on which reactions were completed, and then allowed to react at 30° C. for 1 hour. All wells of the plate were treated with 25 ul of ADP-Glo™ reagent and allowed to react at 30° C. for 40 minutes. After that, all wells were treated with 50 ul of kinase detection buffer, and then reacted at 30° C. for 30 minutes under light shielding conditions. For the plate on which all reactions were completed, luminescence was measured and the results were calculated. Evaluation was carried out in duplicate, and negative control and positive control were calculated depending on whether or not the enzyme was added without treatment of the compound. The IC50 was calculated based on the calculated values.

**Q.** Which IC50 [1] does the source give for `C=CC(=O)Nc1cccc(-c2cc(CN3CCN(C(=O)NCC)CC3)cc(Nc3ncc(C)s3)n2)c1` here?
**A.** 6.7 nM

**Q.** And the IC50 [2]?
**A.** 2.6 nM

**Q.** For `C=CC(=O)Nc1cccc(-c2cc(CN3CCN(C(=O)NC)CC3)cc(Nc3ncc(C)s3)n2)c1`, which IC50 [1] is on record?
**A.** 2 nM

**Q.** What about the IC50 [2] of the same compound?
**A.** 0.9 nM

**Q.** For `C=CC(=O)Nc1cccc(-c2cc(CN3CCCCC3)cc(Nc3cc(C)[nH]n3)n2)c1`, which IC50 [1] is on record?
**A.** 25.7 nM

**Q.** What about the IC50 [2] of the same compound?
**A.** 20.3 nM

**Q.** Which results are given for `C=CC(=O)Nc1cccc(-c2cc(CN3CCN(C(=O)NC(C)C)CC3)cc(Nc3ncc(C)s3)n2)c1`?
**A.** IC50 [1]: 6 nM; IC50 [2]: 3.1 nM
